This is an account of results in paper PMC4762448 (Journal of biomolecular screening, 2011).

Amino acid sequences for entries named in this document (tags omitted). Residues count along the entry.
UniProt P17787, 26-502: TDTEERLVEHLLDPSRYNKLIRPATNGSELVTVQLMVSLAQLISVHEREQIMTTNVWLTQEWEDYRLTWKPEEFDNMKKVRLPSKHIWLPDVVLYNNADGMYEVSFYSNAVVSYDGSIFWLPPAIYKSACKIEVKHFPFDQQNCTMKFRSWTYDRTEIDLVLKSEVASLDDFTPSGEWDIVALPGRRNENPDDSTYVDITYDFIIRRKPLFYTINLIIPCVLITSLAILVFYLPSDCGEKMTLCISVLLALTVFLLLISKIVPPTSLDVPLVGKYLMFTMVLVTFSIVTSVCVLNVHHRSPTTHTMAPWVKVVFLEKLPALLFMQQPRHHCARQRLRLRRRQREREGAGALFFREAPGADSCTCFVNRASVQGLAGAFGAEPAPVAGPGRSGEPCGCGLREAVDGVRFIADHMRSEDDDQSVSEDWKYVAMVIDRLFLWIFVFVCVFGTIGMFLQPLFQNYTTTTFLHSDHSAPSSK
UniProt P43681, 29-627: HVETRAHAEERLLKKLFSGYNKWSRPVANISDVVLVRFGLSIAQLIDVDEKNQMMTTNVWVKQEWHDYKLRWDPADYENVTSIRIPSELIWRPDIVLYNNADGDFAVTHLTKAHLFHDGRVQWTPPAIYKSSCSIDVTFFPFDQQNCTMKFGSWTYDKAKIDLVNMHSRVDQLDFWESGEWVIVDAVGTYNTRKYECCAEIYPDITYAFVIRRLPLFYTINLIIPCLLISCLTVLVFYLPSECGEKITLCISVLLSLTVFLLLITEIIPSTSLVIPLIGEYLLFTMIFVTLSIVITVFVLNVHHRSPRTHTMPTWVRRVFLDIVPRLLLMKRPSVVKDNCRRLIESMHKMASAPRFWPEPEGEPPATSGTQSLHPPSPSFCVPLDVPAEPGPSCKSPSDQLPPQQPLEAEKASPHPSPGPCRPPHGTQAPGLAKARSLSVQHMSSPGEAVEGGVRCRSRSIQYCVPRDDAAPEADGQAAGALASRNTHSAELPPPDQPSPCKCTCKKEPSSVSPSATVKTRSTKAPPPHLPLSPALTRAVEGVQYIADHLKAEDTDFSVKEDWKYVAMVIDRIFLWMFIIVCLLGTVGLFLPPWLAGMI

The target in this experiment is α4β2nAChR (Homo sapiens, UniProt P17787+P43681). Briefly: LGIC-CNiFER membrane potential dye assay in HEK cells, α4β2nAChR. It is filed as cell-based. To be noted: 10 µM.

With `CO[C@H]1CC=C2CCN3CCC4=C(CC(=O)OC4)[C@]23C1` [DHBE, dihydro-beta-erythroidine], the “percent inhibition, α4β2nAChR” value was 86 ± 6.4%.
